ChEMBL document CHEMBL1152185, “Synthesis of a novel 6,14-epoxymorphinan derivative and its pharmacology” (Bioorg Med Chem Lett, 2008)

Chains of the proteins cited; added tags and fusions are not shown. Lines headed by an entry give the natural chain unless they say otherwise; changes in a name come on top.
UniProt P41144: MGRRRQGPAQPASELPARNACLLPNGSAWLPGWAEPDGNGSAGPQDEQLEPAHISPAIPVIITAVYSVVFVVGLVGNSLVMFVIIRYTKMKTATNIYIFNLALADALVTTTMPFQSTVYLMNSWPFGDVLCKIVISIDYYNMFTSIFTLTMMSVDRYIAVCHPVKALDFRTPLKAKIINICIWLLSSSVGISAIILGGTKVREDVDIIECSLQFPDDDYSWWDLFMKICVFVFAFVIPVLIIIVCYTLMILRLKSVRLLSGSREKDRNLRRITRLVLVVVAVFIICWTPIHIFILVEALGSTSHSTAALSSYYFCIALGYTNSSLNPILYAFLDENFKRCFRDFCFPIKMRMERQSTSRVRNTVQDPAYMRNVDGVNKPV

Target: Kappa-type opioid receptor (Cavia porcellus, UniProt P41144)

CN(C(=O)Cc1ccc(Cl)c(Cl)c1)C1CCCCC1N1CCCC1 (stereo unspecified)
IC50: 0.303 nM
